Source: PubChem BioAssay (ICCB-Longwood Screening Facility, Harvard Medical School)
HCMV UL50-53 inh: cytomegalovirus nuclear egress complex inhibition; HTRF UL50-UL53 interaction, normalized percent inhibition; inhibition, % (concentration not given with the values); actives 0.15% (n = 190,000); in the data active = inhibition above about 27%, passing the limit was not always enough
GIV-Gai inh: GIV-Galpha-i interaction inhibition; P08753; Galpha-i3/FITC-GIV peptide fluorescence polarization, 90 min; active compounds read low; scaled: aluminum fluoride 0%, vehicle 100%; percent of control (FP), % (no concentration beside the values); 210,000 compounds, 0.42% hits; AID 1224905;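 active means replicate mean at 85% of control or lower, very high polarization wells dropped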;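 further: wells of about 15 µL received 100 nL stock; the first replicate is given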
GIV-Gai FP conf: confirmation of inhibitors of GIV binding to rat Galpha-i3. shares compounds with GIV-Gai inh. FITC-GIV peptide binding to Galphai3, fluorescence polarization; stronger effect = lower value. fluorescence polarization, mP at 100 µM. actives 38% (n = 580);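 active = inhibition score of 15 or more, meaning 100 minus mean polarization as percent of control over three replicates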
GIV-Gai AS conf: GIV-Galpha-i3 inhibition, AlphaScreen confirmation. shares compounds with GIV-Gai inh. AlphaScreen Galphai3-GIV binding, purified proteins, 90 min; stronger effect = lower value. AlphaScreen counts at 100 µM. actives 39% (n = 580). AID 1259351;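 active = inhibition score at or above a set limit, where the score is 100 minus the three-replicate mean percent of control signal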
Active calls of the source: *; nt = no result given. Only a selection was taken, and hits are over-represented in it overall.

SMILES | HCMV UL50-53 inh | GIV-Gai inh | GIV-Gai FP conf | GIV-Gai AS conf
S=C(NCCCN1CCOCC1)N1CC2CCC(CC2)C1 | -14.4 | 102.5 | nt | nt
COC(=O)c1ccsc1NC(=O)c1cccc(S(C)(=O)=O)c1 | -32.8 | 105.7 | nt | nt
COC(=O)c1ccsc1NC(=O)c1cccc(C)c1 | -26.2 | 65.4* | 69.2 | 35067
CN(C)c1ccc(C2Nc3ccccc3S2)cc1 (centres undefined) | -5.9 | 110.7 | nt | nt
CCOC(=O)c1cccc(NC(=O)[C@@H](c2ccccc2)N2Cc3ccccc3C2=O)c1 | -28.6 | 97.4 | nt | nt
CCCCCn1cc2c(c1-c1ccccc1Cl)c(=O)n(C)c(=O)n2C | -5.6 | 99.5 | nt | nt
O=C(O)c1cnc(N2CCOCC2)c(NS(=O)(=O)c2ccccc2)c1 | -29.2 | 49.0* | 35.8* | 30970
O=C(O)c1cnc(N2CCC(Cc3ccccc3)CC2)c(NS(=O)(=O)c2ccccc2)c1 | -23.0 | 99.4 | nt | nt
CCCNC(=O)c1c(O)c2c([nH]c1=O)CCCC2 | -0.2 | nt | nt | nt
CCOc1cccc(=[O+]CC)c2c(C)oc(C)c12 | nt | 68.1* | 44.2* | 2733*
CCOc1cccc(=O)c2c(C)oc(C)c12 | -56.8 | 92.0 | nt | nt
CN(C)C(=O)c1ccc(N)cc1 | -4.0 | nt | nt | nt
Cc1ccc(CNC(=O)Cn2c(SCC(=O)Nc3ccc(F)cc3)nc3ccccc32)cc1 | nt | 106.4 | nt | nt
CCc1ccc(N=C2NC(=O)/C(=C/c3cc(C)n(CC)c3C)S2)cc1 | -15.4 | 118.8 | nt | nt
Cc1cc(/C=C2\SC(=Nc3ccccc3)NC2=O)c(C)n1-c1ccccc1 | -24.6 | 89.7 | 70.9 | 42209
CC1(C(=O)NC2CCCCCC2)Cc2ccccc2C(=O)N1Cc1ccco1 (centres undefined) | nt | 103.4 | nt | nt
O=C(/C=C/Sc1nc2ccccc2o1)c1ccccc1 | -21.8 | 101.2 | nt | nt
O=C(/C=C/Sc1ccccn1)c1ccccc1 | -9.9 | 85.7 | 62.6 | 40583
COC(=O)CSc1ncnc2ccccc12 | 5.0 | nt | nt | nt
COC(=O)CSc1ccc2c3c(cccc13)C(=O)c1ccccc1-2 | nt | 67.7* | 22.4* | 45087
CCS(=O)(=O)Nc1c(NC)c2ccccc2oc1=O | -21.3 | 100.7 | nt | nt
Cc1[nH]nc2oc(=O)c(Cc3c(F)cccc3Cl)c(C)c12 | -7.7 | 99.9 | nt | nt
Cc1[nH]nc2oc(=O)c(CC(=O)O)c(C)c12 | 64.8 | 84.1* | 59.1* | 27884
CCc1cc2c(N3CCCC(C(=O)NCCN4CCCCC4)C3)ncnc2s1 (centres undefined) | nt | 111.8 | nt | nt
O=C(CSc1ncn[nH]1)Nc1cc(Cl)ccc1Cl | -39.8 | nt | nt | nt
CC1=NN(c2cccc(Br)c2)C(=O)/C1=C\c1ccc(-c2cccc([N+](=O)[O-])c2)o1 | -19.1 | 100.5 | nt | nt
O=C1OC(c2ccccc2)OC(=O)C1=Cc1ccc(-c2cccc(Br)c2)o1 (centres undefined) | nt | 64.3* | 63.3 | 17821*
O=C(NCc1cccc(Cl)c1)c1ccc2c(c1)N(Cc1ccccc1)CCS2 | -25.0 | 104.3 | nt | nt
O=C(NCc1cccc(Cl)c1)c1cc2ccccn2c1 | nt | 75.9* | 88.7 | 9777*
CCOC(=O)C1CCN(C(=O)COC(=O)c2ccc(N(C)C)cc2)CC1 | -12.0 | nt | nt | nt
C/C(=N/N1CCN(c2ccccc2)CC1)c1ccccc1 | -22.0 | 84.9* | 79.1 | 33751
C/C=C(\C)CN1CCN(c2ccccc2)CC1 | 10.2 | 107.7 | nt | nt
N#Cc1c(/N=C/c2ccc(Cl)cc2)oc(-c2ccccc2)c1-c1ccccc1 | nt | 109.1 | nt | nt
N#Cc1c(/N=C/c2ccc3c(c2)OCO3)oc(-c2ccccc2)c1-c1ccccc1 | 6.9 | 83.6* | 74.2 | 31432
COc1cccc(-c2ccc(=O)n(CCc3nc(-c4ccc(C)cc4)no3)n2)c1 | nt | 98.4 | nt | nt
Cc1ccc(NC(=O)Nc2ccccn2)cc1 | -10.7 | 99.9 | nt | nt
CCOC(=O)c1ccc(C#Cc2ccc3c(c2)C(C)(C)CCS3)nc1 | -7.2 | nt | nt | nt
CCC1C/C(=C\c2ccc(OCC(N)=O)cc2)C(=O)/C(=C/c2ccc(OCC(N)=O)cc2)C1 (centres undefined) | nt | 89.5 | 74.9 | 15830*
CCC1C/C(=C\c2ccc(Br)cc2)C(=O)/C(=C/c2ccc(Br)cc2)C1 (centres undefined) | nt | 98.8 | nt | nt
Cc1nc2cc(-c3ccccc3)nn2c(C)c1CC(=O)NCc1ccccc1 | nt | 101.7 | nt | nt
COc1ccc(N2C(=O)/C(=C/c3ccc(OCC(=O)O)c(Br)c3)C(=O)NC2=S)cc1 | -34.1 | 78.5* | 44.6* | 20466*
COc1ccc(N2C(=O)NC(=O)/C(=C\c3ccc(OCC(=O)O)c(Br)c3)C2=O)cc1 | -17.2 | 95.6 | nt | nt
O=C(O)CCC(=O)Nc1nc2n(n1)C(c1ccc(Cl)cc1)C=C(c1ccccc1)N2 (centres undefined) | -74.9 | 62.8* | 44.3* | 2477*
O=C(O)CCCC(=O)Nc1nc2n(n1)C(c1ccc(Cl)cc1)C=C(c1ccc(Cl)cc1)N2 (centres undefined) | -62.6 | 104.0 | nt | nt
CCCCN(CC)c1ncc(NS(=O)(=O)CC)cc1C(=O)O | -38.9 | 109.9 | nt | nt
CCN(CCN(C)C)c1ncc(NS(=O)(=O)CC)cc1C(=O)O | -24.4 | 70.8* | 34.2* | 21018*
Cc1[nH]c(=O)[nH]c(=O)c1S(=O)(=O)NCCO | -10.4 | 103.1 | nt | nt
O=c1[nH]c(NCCO)c(I)c(=O)[nH]1 | 67.2* | 57.4* | 42.7* | 2885*
c1cc2c(cc1CNc1nc3nonc3nc1NCc1ccc3c(c1)OCO3)OCO2 | -2.5 | 106.9 | nt | nt
CCOC(=O)c1nc2cc(C)c(C)cc2nc1NCc1ccc2c(c1)OCO2 | -12.3 | 80.4* | 62.5 | 44491
O=C(NCC1COC2(CCCC2)O1)C1CC1 (centres undefined) | -43.5 | 99.3 | nt | nt
COc1cc(/C=C2\C(=O)N(c3ccc(Cl)c(C(=O)O)c3)N=C2C)ccc1OCc1ccccc1 | 25.9 | 109.1 | nt | nt
COc1cc(/C=C2\C(=O)N(c3ccc(S(N)(=O)=O)cc3)N=C2C)cc(Br)c1OCc1ccccc1 | 46.2* | 66.3* | 58.6 | 27596*
COc1ccc(Nc2nc3ccccc3nc2NS(=O)(=O)c2ccc(C)cc2)c(OC)c1 | -20.8 | 38.8* | 81 | 33344
COc1ccc2nc(NS(=O)(=O)c3ccc(C)cc3)c(Nc3cc(Cl)ccc3OC)nc2c1 | -10.3 | 229.6 | nt | nt
CCCOc1ccc2c(c1)C(=O)c1cc(OCC(=O)O)ccc1-2 | -180.9 | 79.9* | 73.1 | 54581
CCOc1ccc2c(c1)C(=O)c1cc(OCC(=O)OC)ccc1-2 | nt | 128.3 | nt | nt
O=C(/C=C/c1ccccc1)Nc1nnc(/N=C/c2ccc(Br)s2)s1 | nt | 100.4 | nt | nt
Cc1ccc(C(CC(=O)NCCCN2CCCC2)N2Cc3ccccc3C2=O)cc1 (centres undefined) | -31.6 | 105.4 | nt | nt
Cc1ccc(C)c(NC(=O)C(OC(=O)c2ccco2)c2ccccc2)c1 (centres undefined) | 0.6 | nt | nt | nt

(more compounds)
SMILES | HCMV UL50-53 inh | GIV-Gai inh | GIV-Gai FP conf | GIV-Gai AS conf
N#CC1=C(N)Oc2cc(O)ccc2C1c1ccccc1 (centres undefined) | -9.7 | 103.8 | nt | nt
CCN(CC)c1ccc2c(c1)OC(N)=C(C#N)C2c1cccc(F)c1 (centres undefined) | -17.6 | 107.6 | 115 | 21637
Cc1c2c(n3c(nc4ccccc43)c1C#N)N(C1CCCC1)CC2 | -15.5 | 101.0 | nt | nt
Cc1c2c(n3c(nc4ccccc43)c1C#N)N(CCN1CCOCC1)CC2 | -26.8 | 97.3 | 76 | 30989
